## Membrane permeability of cyclic peptides

Collected by the curators of CycPeptMPDB (Li et al. 2023) from Kelly et al. 2021, doi:10.1021/jacs.0c06115.

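Lipid, pH, incubation time, direction and concentration are not recorded in the data file. The list need not hold all peptides of the study. Peptides that the database sets to -10, its floor, are left out.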

PAMPA is the parallel artificial membrane permeability assay, which has no cells and reads passive diffusion. Values are log10 P with P in cm/s, so -5 is more permeable than -7.

| SMILES | PAMPA (log10 cm/s) |
|---|---|
| CC(=O)N1CCC[C@H]1C(=O)N[C@@H]1C(=O)N[C@H](CC(C)C)C(=O)N[C@@H](CC(C)C)C(=O)N(C)[C@H](CC(C)C)C(=O)N(C)[C@H](CC(C)C)C(=O)N(C)[C@H](C)C(=O)N[C@@H](CC(C)C)C(=O)N2CCC[C@@H]2C(=O)O[C@@H]1C | -5.64 |
| CC(=O)N1CCC[C@H]1C(=O)N(C)[C@H](CC(C)C)C(=O)N[C@@H]1C(=O)N(C)[C@@H](CC(C)C)C(=O)N[C@@H](CC(C)C)C(=O)N[C@@H](CC(C)C)C(=O)N(C)[C@@H](C)C(=O)N[C@@H](CC(C)C)C(=O)N2CCC[C@@H]2C(=O)O[C@@H]1C | -6.23 |
| CC(=O)N1CCC[C@H]1C(=O)N(C)[C@H](CC(C)C)C(=O)N[C@@H]1C(=O)N[C@H](CC(C)C)C(=O)N[C@@H](CC(C)C)C(=O)N[C@H](CC(C)C)C(=O)N(C)[C@H](C)C(=O)N[C@@H](CC(C)C)C(=O)N2CCC[C@H]2C(=O)O[C@@H]1C | -5.34 |
| CC(=O)N1CCC[C@@H]1C(=O)N(C)[C@H](CC(C)C)C(=O)N[C@@H]1C(=O)N(C)[C@@H](CC(C)C)C(=O)N[C@@H](CC(C)C)C(=O)N(C)[C@@H](CC(C)C)C(=O)N[C@@H](C)C(=O)N[C@H](CC(C)C)C(=O)N2CCC[C@H]2C(=O)O[C@@H]1C | -6.18 |
| CC(=O)N1CCC[C@H]1C(=O)N(C)[C@H](CC(C)C)C(=O)N[C@@H]1C(=O)N(C)[C@@H](CC(C)C)C(=O)N[C@H](CC(C)C)C(=O)N(C)[C@@H](CC(C)C)C(=O)N(C)[C@@H](C)C(=O)N[C@H](CC(C)C)C(=O)N2CCC[C@@H]2C(=O)O[C@@H]1C | -6.11 |
| CC(=O)N1CCC[C@@H]1C(=O)N(C)[C@@H](CC(C)C)C(=O)N[C@@H]1C(=O)N(C)[C@@H](CC(C)C)C(=O)N(C)[C@@H](CC(C)C)C(=O)N(C)[C@H](CC(C)C)C(=O)N(C)[C@H](C)C(=O)N[C@H](CC(C)C)C(=O)N2CCC[C@H]2C(=O)O[C@@H]1C | -5.84 |
| CC(=O)N1CCC[C@H]1C(=O)N(C)[C@@H](CC(C)C)C(=O)N[C@@H]1C(=O)N(C)[C@@H](CC(C)C)C(=O)N[C@H](CC(C)C)C(=O)N[C@H](CC(C)C)C(=O)N(C)[C@H](C)C(=O)N[C@H](CC(C)C)C(=O)N2CCC[C@H]2C(=O)O[C@@H]1C | -6.14 |
| CC(=O)N1CCC[C@H]1C(=O)N(C)[C@@H](CC(C)C)C(=O)N[C@@H]1C(=O)N(C)[C@H](CC(C)C)C(=O)N(C)[C@H](CC(C)C)C(=O)N(C)[C@H](CC(C)C)C(=O)N(C)[C@H](C)C(=O)N[C@@H](CC(C)C)C(=O)N2CCC[C@H]2C(=O)O[C@@H]1C | -5.19 |
| CC(=O)N1CCC[C@H]1C(=O)N(C)[C@H](CC(C)C)C(=O)N[C@@H]1C(=O)N(C)[C@H](CC(C)C)C(=O)N(C)[C@H](CC(C)C)C(=O)N(C)[C@@H](CC(C)C)C(=O)N(C)[C@H](C)C(=O)N[C@H](CC(C)C)C(=O)N2CCC[C@H]2C(=O)O[C@@H]1C | -5.04 |
| CC(=O)N1CCC[C@@H]1C(=O)N(C)[C@H](CC(C)C)C(=O)N[C@@H]1C(=O)N(C)[C@H](CC(C)C)C(=O)N[C@@H](CC(C)C)C(=O)N[C@H](CC(C)C)C(=O)N(C)[C@H](C)C(=O)N[C@H](CC(C)C)C(=O)N2CCC[C@H]2C(=O)O[C@@H]1C | -6.00 |
| CC(=O)N1CCC[C@@H]1C(=O)N(C)[C@@H](CC(C)C)C(=O)N[C@@H]1C(=O)N[C@@H](CC(C)C)C(=O)N[C@@H](CC(C)C)C(=O)N(C)[C@@H](CC(C)C)C(=O)N(C)[C@@H](C)C(=O)N[C@@H](CC(C)C)C(=O)N2CCC[C@@H]2C(=O)O[C@@H]1C | -6.54 |
| CC(=O)N1CCC[C@@H]1C(=O)N(C)[C@@H](CC(C)C)C(=O)N[C@@H]1C(=O)N[C@@H](CC(C)C)C(=O)N[C@@H](CC(C)C)C(=O)N[C@@H](CC(C)C)C(=O)N(C)[C@H](C)C(=O)N[C@@H](CC(C)C)C(=O)N2CCC[C@H]2C(=O)O[C@@H]1C | -6.04 |
| CC(=O)N1CCC[C@H]1C(=O)N(C)[C@@H](CC(C)C)C(=O)N[C@@H]1C(=O)N[C@H](CC(C)C)C(=O)N[C@H](CC(C)C)C(=O)N[C@H](CC(C)C)C(=O)N[C@@H](C)C(=O)N[C@H](CC(C)C)C(=O)N2CCC[C@@H]2C(=O)O[C@@H]1C | -9.00 |
| CC(=O)N1CCC[C@H]1C(=O)N(C)[C@@H](CC(C)C)C(=O)N[C@@H]1C(=O)N[C@H](CC(C)C)C(=O)N(C)[C@H](CC(C)C)C(=O)N[C@H](CC(C)C)C(=O)N(C)[C@@H](C)C(=O)N[C@@H](CC(C)C)C(=O)N2CCC[C@@H]2C(=O)O[C@@H]1C | -5.22 |
| CC(=O)N1CCC[C@H]1C(=O)N[C@@H]1C(=O)N(C)[C@H](CC(C)C)C(=O)N(C)[C@@H](CC(C)C)C(=O)N(C)[C@H](CC(C)C)C(=O)N(C)[C@@H](CC(C)C)C(=O)N(C)[C@@H](C)C(=O)N[C@@H](CC(C)C)C(=O)N2CCC[C@@H]2C(=O)O[C@@H]1C | -4.81 |
| CC(=O)N[C@@H]1C(=O)N2CCC[C@H]2C(=O)N(C)[C@H](CC(C)C)C(=O)N(C)[C@@H](CC(C)C)C(=O)N[C@H](CC(C)C)C(=O)N(C)[C@@H](CC(C)C)C(=O)N[C@H](C)C(=O)N[C@@H](CC(C)C)C(=O)N2CCC[C@@H]2C(=O)O[C@@H]1C | -5.54 |
| CC(=O)N1CCC[C@@H]1C(=O)N(C)[C@H](CC(C)C)C(=O)N[C@@H]1C(=O)N[C@@H](CC(C)C)C(=O)N[C@H](CC(C)C)C(=O)N(C)[C@@H](CC(C)C)C(=O)N[C@@H](C)C(=O)N[C@H](CC(C)C)C(=O)N2CCC[C@H]2C(=O)O[C@@H]1C | -6.12 |
| CC(=O)N1CCC[C@H]1C(=O)N(C)[C@@H](CC(C)C)C(=O)N[C@@H]1C(=O)N[C@@H](CC(C)C)C(=O)N[C@H](CC(C)C)C(=O)N(C)[C@@H](CC(C)C)C(=O)N(C)[C@@H](C)C(=O)N[C@H](CC(C)C)C(=O)N2CCC[C@@H]2C(=O)O[C@@H]1C | -5.72 |
| CC(=O)N1CCC[C@H]1C(=O)N[C@@H]1C(=O)N[C@H](CC(C)C)C(=O)N[C@H](CC(C)C)C(=O)N[C@@H](CC(C)C)C(=O)N[C@@H](CC(C)C)C(=O)N(C)[C@@H](C)C(=O)N[C@@H](CC(C)C)C(=O)N2CCC[C@@H]2C(=O)O[C@@H]1C | -6.20 |

Excerpt, the final 2 entries:

| SMILES | PAMPA (log10 cm/s) |
|---|---|
| CC(=O)N1CCC[C@H]1C(=O)N(C)[C@@H](CC(C)C)C(=O)N[C@@H]1C(=O)N[C@@H](CC(C)C)C(=O)N[C@H](CC(C)C)C(=O)N(C)[C@@H](CC(C)C)C(=O)N(C)[C@@H](C)C(=O)N[C@H](CC(C)C)C(=O)N2CCC[C@@H]2C(=O)O[C@@H]1C | -5.72 |
| CC(=O)N1CCC[C@H]1C(=O)N[C@@H]1C(=O)N[C@H](CC(C)C)C(=O)N[C@H](CC(C)C)C(=O)N[C@@H](CC(C)C)C(=O)N[C@@H](CC(C)C)C(=O)N(C)[C@@H](C)C(=O)N[C@@H](CC(C)C)C(=O)N2CCC[C@@H]2C(=O)O[C@@H]1C | -6.20 |